Patent US20110071403A1, “FUNCTIONAL NEAR-INFRARED FLUORESCENCE LYMPHATIC MAPPING FOR DIAGNOSING, ACCESSING, MONITORING AND DIRECTING THERAPY OF LYMPHATIC DISORDERS” (BOARD OF REGENTS OF THE UNIVERSITY OF TEXAS SYSTEM, priority 2009, published 2011)

Columns and labels:
[1] = optical characterization of NIR imaging agents (spectra, extinction coefficient, quantum yield, lifetime, relative brightness); format: physicochemical; conditions: 1 μM solution
Description: Fluorescence quantum yield was determined by the comparative method of Williams et al. 1983 (Williams, Winfield and Miller. Analyst 109, 1067, 1983) using the quantum yield of ICG (in water) at 785/830 nm (24) as a standard. Lifetime measurements were obtained using the frequency domain-method using ICG as a standard. The IC50 of IRDye800-ABD was determined using a competitive binding assay modified from Dennis et al. 2002 (ibid). Briefly, MAXISORP fluorescent plates (Nunc, Rochester, N.Y.) were coated with mouse serum albumin (Sigma St Louis, Mo.) and incubated overnight at 4 degrees. Plates were washed three times with PBS+0.05% Tween20 (Sigma St. Louis, Mo.) to remove unbound albumin and were then blocked with TBS in casein (Pierce Rockford, Ill.) for 1 hour at 25 degrees. […] The plate was washed with PBS+0.05% Tween20 three times to remove unbound peptide and fluorescence was measured using the ODYSSEY fluorescent plate reader (LI-COR, Lincoln, Nebr.). The average and standard deviation of four IC-50 values were determined.
In addition, Table 1 lists the relative brightness of each compound relative to ICG which was computed by taking the ratio of ((extinction coefficient)×(quantum yield))/((extinction coefficient of ICG)×(quantum yield of ICG)). […] Spectra for ICG and the IRDye800 conjugates were determined.

inguinal lymph node = conditions: mouse, in vivo

Question: What does the source list for “IRDye800-MSA: IRDye800 conjugated to mouse serum albumin, dye to protein ratio of 2.8, provided by LI-COR”?
Answer: Emission maximum [1]: 802; Excitation maximum [1]: 787; fluorescence intensity in inguinal node, initially (inguinal lymph node): started out with a lower intensity; lymphatic clearance from inguinal lymph node (inguinal lymph node): slowed clearance
